{
  "source": "paper PMC7078208",
  "about": "“Interaction of SHP-2 SH2 domains with PD-1 ITSM induces PD-1 dimerization and SHP-2 activation” (Communications Biology, 2020)",
  "test_system": "PD-1-SmBiT: PD-1-LgBiT complex (PD-1: PD-1 interaction) in HEK-293 cells",
  "assay": "NanoBiT assay for PD-1 dimerization in HEK-293 cells",
  "format": "cell-based, human",
  "conditions": "HEK-293, PD1SmBiT, PD1LgBiT, SHP-2 WT, kinase active Fyn; Fig. 4d",
  "protocol": "For experiments with HEK-293 cells, one day before transfection, HEK-293 were plated as 20,000 cells in 0.1 ml DMEM complete medium per well, in six replicates per condition, on a white 96-well tissue culture plate. The following day cells were transfected by Fugene HD (Promega Corporation, Madison, WI) according to the manufacturer’s instructions. A total amount of 100 ng of cDNA was transfected, which included equal amounts (25 ng) of each plasmid for conditions in which four different cDNAs were used. When <4 plasmids were used, the total amount of transfected cDNA was made 100 ng by addition of empty vector. Thirty-hours after transfection, 25 µl of 1X Nano-Glo Live-Cell Assay Substrate (Promega) was added per well and luminescence was read immediately on a SpectraMax M3 plate reader (Molecular Devices). Where indicated, the allosteric SHP-2 inhibitor SHP099 (Medchem Express) was added in the cultures in increasing concentrations; vehicle (DMSO) was used as control. For experiments with primary human T cells a total amount of 2 µg of cDNA was transiently co-transfected using the Nucleofector system as described in the Cell Transfection section. […] Cells were co-cultured with Raji-PD-L1 with or without loaded SEE and complex formation between PD-1-SmBiT and PD-1-LgBiT was assessed 6 h later by luciferase assay.",
  "data": [
    {"substance": "hPDL1-monomer: monomeric recombinant human PD-L1", "values": [
      {"measurement": "effect of PD-1 ligation on PD-1 dimerization", "result": "not"}
    ]}
  ]
}
